From patent US9573957B2 (Boehringer Ingelheim International GmbH, priority 2013, dated 2017) come the findings set out here.

Amino acid sequences for entries named in this document (tags omitted).
UniProt P09960, whole entry: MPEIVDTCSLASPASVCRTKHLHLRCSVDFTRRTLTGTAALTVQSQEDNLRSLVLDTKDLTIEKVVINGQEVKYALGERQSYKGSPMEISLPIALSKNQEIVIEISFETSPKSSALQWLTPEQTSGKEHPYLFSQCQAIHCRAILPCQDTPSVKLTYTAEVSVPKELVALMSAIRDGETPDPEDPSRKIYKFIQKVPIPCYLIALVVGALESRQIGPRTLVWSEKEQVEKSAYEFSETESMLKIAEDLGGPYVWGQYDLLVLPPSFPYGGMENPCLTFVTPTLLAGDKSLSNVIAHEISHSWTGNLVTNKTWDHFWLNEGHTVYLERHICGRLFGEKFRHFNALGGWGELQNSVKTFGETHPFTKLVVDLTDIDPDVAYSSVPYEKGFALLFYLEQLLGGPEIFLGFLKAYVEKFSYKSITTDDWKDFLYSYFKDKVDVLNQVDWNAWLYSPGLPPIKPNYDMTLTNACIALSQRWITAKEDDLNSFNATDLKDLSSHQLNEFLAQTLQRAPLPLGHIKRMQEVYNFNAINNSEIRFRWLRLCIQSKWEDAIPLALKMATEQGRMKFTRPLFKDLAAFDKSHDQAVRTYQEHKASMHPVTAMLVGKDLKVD

pIC50: −log10 of the molar value.

The term pIC50 denotes the negative decadic logarithm of the IC50, by convention in mol/L.

In one assay the target is human LTA4 hydrolase (Homo sapiens (Human), UniProt P09960). In words: LTA4H Enzyme assay (peptidase, Arg-AMC cleavage). Conditions: read-out: Peptidase IC50; LTA4H Enzyme 1 nM, Arg-AMC substrate 50 μM, room temperature 1 h, fluorescence.
In assay [1] the test system is synthesis of LTB4 in human whole blood. The assay can be described thus: LTB4 production inhibition assay in human whole blood (HWB). Conditions: read-out: hWB IC50; heparinized human whole blood, 15 min at 37° C., Calcimycin 20 μM 30 min, plasma LTB4 by HTRF. The protocol:
The compounds of the invention are additionally tested in a human whole blood (HWB) assay to determine their ability to inhibit the synthesis of LTB4 in a cellular system. Compounds are combined with heparinized human whole blood and incubated for 15 minutes at 37° C. Calcimycin (20 μM final, prepared in phosphate-buffered saline, pH 7.4) is then added and the mixture is incubated for another 30 minutes at 37° C. The samples are centrifuged for 5 min at low speed (1500×g) and the plasma layer is removed. Plasma LTB4 concentrations are then measured using an antibody-based homogenous time-resolved fluorescence method (CisBio, Bedford, Mass.). In general, the preferred potency range (IC50) of compounds in the HWB assay is between 10 nM to 10 μM, the more preferred potency range is 10 nM to 1 μM, and the most preferred potency range is 10 nM to 100 nM.
(In general: TR-FRET usually uses a lanthanide donor and a delayed reading to cut background.)

On to `CO[C@@H](C)C(=O)N1CCN(Cc2cn3cc(Oc4ccc(-c5ccn[nH]5)cc4)ccc3n2)CC1`, for which the figures for the pIC50 (at human LTA4 hydrolase; in assay [1]) were 9.00 and 6.55, respectively.
For `O=C(CO)N1CCN(Cc2cn3cc(Oc4ccc(-c5ccn[nH]5)cc4)ccc3n2)CC1`, the negative-log IC50 (pIC50) on human LTA4 hydrolase is 9.10; in assay [1], 6.62.
